For two compounds, EC50 results are on record in article PMC10056986 (Pharmaceuticals, 2023).

By UniProt entry, the sequences of proteins in these tests, tags left out.
UniProt P08588, whole entry: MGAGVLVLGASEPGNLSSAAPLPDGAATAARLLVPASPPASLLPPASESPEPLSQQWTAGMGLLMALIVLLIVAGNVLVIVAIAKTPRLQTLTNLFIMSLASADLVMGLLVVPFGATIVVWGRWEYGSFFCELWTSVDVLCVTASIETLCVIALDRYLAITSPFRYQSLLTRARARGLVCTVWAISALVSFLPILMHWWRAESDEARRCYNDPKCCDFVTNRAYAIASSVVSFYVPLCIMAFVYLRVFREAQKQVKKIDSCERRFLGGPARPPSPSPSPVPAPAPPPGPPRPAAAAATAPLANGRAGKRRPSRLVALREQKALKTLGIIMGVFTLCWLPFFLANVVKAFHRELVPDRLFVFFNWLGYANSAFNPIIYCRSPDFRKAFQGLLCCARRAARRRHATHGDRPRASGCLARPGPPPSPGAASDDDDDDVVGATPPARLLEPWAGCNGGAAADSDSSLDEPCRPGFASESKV
UniProt P32238, whole entry: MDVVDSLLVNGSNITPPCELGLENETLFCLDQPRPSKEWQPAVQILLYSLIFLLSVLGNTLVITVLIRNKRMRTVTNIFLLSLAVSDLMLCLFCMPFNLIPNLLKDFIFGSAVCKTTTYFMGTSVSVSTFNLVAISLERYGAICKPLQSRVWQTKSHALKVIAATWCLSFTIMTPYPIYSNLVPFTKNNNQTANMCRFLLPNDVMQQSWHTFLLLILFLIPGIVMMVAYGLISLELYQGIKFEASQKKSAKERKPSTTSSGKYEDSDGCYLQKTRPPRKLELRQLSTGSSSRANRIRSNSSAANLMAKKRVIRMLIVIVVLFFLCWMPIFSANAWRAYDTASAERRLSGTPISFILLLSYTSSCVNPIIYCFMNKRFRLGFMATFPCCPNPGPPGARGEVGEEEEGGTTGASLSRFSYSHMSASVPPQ

One assay has as its target Beta1 (Homo sapiens, UniProt P08588). In words: cell-based.
The target of a further assay is CCKa (Homo sapiens, UniProt P32238). In words: cell-based.

SMILES strings stand for the structures.

As usually defined, the EC50 is the concentration that produces a half-maximal response. A high value points to a need for much substance. Consider `CNC[C@H](O)c1ccc(O)c(O)c1` [(−)-Epinephrine, reference compound], for which the EC50 on Beta1 came to 0.00324 µM. In other words, the single-digit nanomolar range.

For the compound `CSCC[C@H](NC(=O)[C@@H](N)Cc1c[nH]c2ccccc12)C(=O)N[C@@H](CC(=O)O)C(=O)N[C@@H](Cc1ccccc1)C(N)=O` [CCK-4, reference compound], the EC50 on CCKa is 0.0714 µM. This lies in the double-digit nanomolar range.
